Our source for the IC50 values is patent US20190076436A1, “MACROCYCLIC COMPOUNDS AS ROS1 KINASE INHIBITORS” (Array BioPharma Inc., priority 2017, published 2019).

Chains of the proteins cited; added tags and fusions are not shown. Residues count along the entry.
UniProt P08922, 28-2347 D2033N: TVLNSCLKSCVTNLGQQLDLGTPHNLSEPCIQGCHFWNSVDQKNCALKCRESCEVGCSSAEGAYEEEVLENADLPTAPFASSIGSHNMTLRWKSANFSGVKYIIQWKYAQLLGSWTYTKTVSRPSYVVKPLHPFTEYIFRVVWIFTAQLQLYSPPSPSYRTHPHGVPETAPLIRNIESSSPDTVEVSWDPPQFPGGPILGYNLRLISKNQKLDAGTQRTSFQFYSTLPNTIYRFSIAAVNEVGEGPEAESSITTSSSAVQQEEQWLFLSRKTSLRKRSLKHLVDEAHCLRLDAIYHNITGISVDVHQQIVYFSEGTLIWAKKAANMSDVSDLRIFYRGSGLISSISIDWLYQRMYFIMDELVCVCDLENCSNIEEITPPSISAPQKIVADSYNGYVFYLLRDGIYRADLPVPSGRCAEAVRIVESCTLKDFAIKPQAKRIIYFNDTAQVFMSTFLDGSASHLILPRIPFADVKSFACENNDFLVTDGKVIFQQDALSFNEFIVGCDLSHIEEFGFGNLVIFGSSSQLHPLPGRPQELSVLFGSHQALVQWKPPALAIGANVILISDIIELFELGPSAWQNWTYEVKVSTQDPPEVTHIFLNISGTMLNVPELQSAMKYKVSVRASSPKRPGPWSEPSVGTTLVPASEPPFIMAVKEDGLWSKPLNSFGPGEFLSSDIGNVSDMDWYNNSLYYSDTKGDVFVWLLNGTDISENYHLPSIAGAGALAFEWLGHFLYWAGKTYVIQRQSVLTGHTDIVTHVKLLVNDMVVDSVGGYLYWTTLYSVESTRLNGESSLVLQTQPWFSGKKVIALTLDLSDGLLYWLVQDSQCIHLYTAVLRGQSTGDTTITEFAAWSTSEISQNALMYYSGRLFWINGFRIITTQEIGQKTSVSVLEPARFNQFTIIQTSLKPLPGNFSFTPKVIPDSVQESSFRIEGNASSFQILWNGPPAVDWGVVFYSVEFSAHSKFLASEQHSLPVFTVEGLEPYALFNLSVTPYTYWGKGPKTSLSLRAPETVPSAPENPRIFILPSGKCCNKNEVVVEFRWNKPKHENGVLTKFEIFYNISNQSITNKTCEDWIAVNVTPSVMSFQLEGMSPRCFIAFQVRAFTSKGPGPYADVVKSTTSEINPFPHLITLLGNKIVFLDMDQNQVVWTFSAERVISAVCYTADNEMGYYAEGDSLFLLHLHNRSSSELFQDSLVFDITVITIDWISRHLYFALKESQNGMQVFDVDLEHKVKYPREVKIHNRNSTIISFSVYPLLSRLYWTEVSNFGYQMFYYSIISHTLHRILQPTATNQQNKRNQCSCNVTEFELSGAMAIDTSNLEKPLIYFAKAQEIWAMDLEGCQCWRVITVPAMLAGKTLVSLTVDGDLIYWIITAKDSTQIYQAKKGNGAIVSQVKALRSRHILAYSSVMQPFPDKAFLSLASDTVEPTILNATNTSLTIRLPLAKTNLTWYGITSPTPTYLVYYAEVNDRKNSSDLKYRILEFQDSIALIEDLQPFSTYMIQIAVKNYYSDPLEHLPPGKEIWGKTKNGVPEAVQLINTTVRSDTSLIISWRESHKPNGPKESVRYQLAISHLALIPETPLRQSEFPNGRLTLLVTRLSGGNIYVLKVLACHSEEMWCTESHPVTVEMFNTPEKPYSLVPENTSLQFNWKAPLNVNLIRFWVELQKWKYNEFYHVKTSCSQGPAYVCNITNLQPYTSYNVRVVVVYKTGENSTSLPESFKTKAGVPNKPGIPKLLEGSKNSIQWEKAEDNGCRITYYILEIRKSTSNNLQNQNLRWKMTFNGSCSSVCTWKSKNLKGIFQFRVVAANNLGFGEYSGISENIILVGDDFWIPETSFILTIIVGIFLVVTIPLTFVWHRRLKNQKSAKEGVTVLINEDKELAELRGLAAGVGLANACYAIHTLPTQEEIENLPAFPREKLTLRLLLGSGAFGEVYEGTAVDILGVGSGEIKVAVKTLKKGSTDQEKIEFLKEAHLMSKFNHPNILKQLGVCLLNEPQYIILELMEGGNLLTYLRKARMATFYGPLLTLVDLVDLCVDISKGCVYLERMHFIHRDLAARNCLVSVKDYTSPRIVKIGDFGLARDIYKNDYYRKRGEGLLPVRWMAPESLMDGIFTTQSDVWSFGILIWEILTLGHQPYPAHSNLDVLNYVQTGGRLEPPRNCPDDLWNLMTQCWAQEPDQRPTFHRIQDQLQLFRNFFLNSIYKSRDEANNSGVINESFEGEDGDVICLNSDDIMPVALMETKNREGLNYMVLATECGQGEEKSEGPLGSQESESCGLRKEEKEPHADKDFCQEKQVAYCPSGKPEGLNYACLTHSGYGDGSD
UniProt P08922, 1883-2347 G2032R limits assumed: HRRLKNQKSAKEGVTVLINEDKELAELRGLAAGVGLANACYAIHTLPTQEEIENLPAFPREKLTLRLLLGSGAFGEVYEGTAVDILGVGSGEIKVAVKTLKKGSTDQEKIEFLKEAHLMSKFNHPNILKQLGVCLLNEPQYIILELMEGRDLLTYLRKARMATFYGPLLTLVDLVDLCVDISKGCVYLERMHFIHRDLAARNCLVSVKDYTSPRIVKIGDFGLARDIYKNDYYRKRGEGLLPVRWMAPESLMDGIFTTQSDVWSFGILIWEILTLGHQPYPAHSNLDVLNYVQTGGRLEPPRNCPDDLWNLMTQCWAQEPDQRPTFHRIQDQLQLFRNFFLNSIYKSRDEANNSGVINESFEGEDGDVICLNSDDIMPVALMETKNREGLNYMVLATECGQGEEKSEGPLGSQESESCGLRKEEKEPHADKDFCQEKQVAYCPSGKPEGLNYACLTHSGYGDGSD
UniProt P08922, 1883-2347 limits assumed: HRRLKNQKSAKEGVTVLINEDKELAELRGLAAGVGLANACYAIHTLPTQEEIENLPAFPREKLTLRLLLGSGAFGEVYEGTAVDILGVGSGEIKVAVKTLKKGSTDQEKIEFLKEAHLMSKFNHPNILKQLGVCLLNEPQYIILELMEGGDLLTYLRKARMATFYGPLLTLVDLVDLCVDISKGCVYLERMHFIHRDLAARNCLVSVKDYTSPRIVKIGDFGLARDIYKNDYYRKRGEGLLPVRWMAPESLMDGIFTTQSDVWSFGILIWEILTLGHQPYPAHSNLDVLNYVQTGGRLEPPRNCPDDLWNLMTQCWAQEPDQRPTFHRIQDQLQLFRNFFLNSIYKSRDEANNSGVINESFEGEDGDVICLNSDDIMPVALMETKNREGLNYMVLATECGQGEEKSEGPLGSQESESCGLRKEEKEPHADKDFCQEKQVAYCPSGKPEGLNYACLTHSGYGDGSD
UniProt P08922, 28-2347 L2026M: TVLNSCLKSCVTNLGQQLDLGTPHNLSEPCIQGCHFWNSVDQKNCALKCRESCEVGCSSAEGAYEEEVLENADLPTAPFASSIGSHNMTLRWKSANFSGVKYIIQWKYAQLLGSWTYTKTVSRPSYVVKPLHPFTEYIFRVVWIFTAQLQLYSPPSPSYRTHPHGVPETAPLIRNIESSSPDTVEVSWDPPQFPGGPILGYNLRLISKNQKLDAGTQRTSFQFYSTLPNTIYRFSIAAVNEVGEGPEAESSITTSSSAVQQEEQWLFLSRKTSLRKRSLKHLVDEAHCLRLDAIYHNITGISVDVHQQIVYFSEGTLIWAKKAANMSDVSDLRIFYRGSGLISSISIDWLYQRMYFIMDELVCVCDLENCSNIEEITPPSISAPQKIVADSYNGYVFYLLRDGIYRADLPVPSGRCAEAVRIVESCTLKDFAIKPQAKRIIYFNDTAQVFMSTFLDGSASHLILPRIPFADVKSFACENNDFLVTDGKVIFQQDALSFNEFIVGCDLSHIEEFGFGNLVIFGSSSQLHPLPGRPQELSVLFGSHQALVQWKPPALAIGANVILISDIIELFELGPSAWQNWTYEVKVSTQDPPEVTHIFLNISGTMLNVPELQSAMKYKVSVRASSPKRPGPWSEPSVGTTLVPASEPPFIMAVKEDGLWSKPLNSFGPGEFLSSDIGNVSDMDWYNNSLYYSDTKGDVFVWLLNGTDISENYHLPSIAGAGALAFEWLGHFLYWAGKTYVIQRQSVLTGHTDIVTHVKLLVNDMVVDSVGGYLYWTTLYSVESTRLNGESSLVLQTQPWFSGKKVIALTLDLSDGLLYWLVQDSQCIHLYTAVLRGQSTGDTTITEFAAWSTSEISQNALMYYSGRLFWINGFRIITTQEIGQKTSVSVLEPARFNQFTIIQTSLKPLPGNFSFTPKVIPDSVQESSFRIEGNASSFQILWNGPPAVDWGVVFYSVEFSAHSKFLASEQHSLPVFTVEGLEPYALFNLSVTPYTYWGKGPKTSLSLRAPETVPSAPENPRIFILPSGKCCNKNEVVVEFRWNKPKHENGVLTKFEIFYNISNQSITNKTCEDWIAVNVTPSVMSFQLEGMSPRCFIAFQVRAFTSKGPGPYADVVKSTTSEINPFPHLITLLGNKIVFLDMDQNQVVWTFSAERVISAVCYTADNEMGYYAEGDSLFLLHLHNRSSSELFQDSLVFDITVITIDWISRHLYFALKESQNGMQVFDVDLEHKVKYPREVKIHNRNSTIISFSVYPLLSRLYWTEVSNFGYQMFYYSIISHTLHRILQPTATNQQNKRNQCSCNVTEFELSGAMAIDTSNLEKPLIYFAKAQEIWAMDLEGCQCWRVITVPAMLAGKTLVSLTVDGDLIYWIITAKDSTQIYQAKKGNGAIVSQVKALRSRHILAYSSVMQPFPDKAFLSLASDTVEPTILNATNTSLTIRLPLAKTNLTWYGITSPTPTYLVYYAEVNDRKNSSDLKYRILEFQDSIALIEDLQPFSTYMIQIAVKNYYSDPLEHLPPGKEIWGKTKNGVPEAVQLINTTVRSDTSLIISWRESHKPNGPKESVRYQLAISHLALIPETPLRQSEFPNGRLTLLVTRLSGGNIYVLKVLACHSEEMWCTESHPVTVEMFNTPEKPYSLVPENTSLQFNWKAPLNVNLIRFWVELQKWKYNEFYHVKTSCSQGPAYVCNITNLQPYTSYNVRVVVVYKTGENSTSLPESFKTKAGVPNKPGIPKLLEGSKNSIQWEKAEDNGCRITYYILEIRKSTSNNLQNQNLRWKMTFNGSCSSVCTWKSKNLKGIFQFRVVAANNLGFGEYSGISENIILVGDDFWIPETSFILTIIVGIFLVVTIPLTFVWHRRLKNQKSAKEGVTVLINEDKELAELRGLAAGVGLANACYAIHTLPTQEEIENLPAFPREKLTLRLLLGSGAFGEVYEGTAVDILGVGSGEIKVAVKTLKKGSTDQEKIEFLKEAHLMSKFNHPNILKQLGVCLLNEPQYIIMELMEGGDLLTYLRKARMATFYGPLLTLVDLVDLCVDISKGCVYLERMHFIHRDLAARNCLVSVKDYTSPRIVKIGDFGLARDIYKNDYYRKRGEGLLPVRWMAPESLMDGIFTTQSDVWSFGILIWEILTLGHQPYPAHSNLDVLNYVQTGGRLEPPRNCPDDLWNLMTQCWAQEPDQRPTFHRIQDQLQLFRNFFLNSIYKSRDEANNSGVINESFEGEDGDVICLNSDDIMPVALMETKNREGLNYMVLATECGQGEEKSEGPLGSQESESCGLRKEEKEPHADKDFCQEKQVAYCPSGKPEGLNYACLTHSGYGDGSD

Common to all, as to type: biochemical
The target of assay [1] is D2033N ROS1 (Homo sapiens, UniProt P08922, D2033N). The assay is described as follows: Inhibition of D2033N ROS1 kinase, CisBio HTRF KinEASE-TK assay. The procedure: (§1) The potency of a compound inhibiting wild type and exemplary mutant ROS1 kinases was determined using CisBio's HTRF Kinease-TK assay technology. […] No. […] No. […] Each kinase is incubated with 250 nM TK-substrate biotin (CisBio, Cat. No. 62TKOPEC) and 1 mM ATP along with test compound in a buffer consisting of 25 mM MOPS [pH 7.4], 5 mM MgCl2, 0.005% Triton X-100, and 2% DMSO in a volume of 8 μL. […] After a 1 hour incubation at 22° C., the extent of reaction was determined using a PerkinElmer EnVision multimode plate reader via HTRF dual wavelength detection, and the percent of control (POC) was calculated using a ratiometric emission factor. 100 POC is determined using no test compound and 0 POC is determined in the absence of enzyme.
On the technique in general: Time-resolved FRET reads energy transfer from a long-lived donor to a nearby acceptor.

Assay [2] has as its target G2032R ROS1 (Homo sapiens, UniProt P08922, G2032R). Kind of assay: Inhibition of G2032R ROS1 kinase, CisBio HTRF KinEASE-TK assay. The procedure:
as §1

Assay [3] has as its target wild type ROS1 (Homo sapiens, UniProt P08922). The assay is described as follows: Inhibition of wild type ROS1 kinase, CisBio HTRF KinEASE-TK assay. Particulars: read-out: ROS1 wT IC50. The procedure: as §1
Assay [4] deals with L2026M ROS1 (Homo sapiens, UniProt P08922, L2026M). The assay is described as follows: Inhibition of L2026M ROS1 kinase, CisBio HTRF KinEASE-TK assay. The procedure: as §1

Structures are written as SMILES.

The term IC50 denotes the concentration needed to halve the response being measured. Regarding `C[C@@H]1CCc2ncc(F)cc2[C@H]2CCCN2c2ccn3ncc(c3n2)C(=O)N1` [Compound 33-B, (6R,15R)-9-fluoro-15-methyl-2,11,16,20,21,24-hexaazapentacyclo[16.5.2.0^2,6.0^7,12.0^21,25] pentacosa-1(24),7,9,11,18(25),19,22-heptaen-17-one], the IC50 in assay [1] came to 0.5 nM; in assay [2], 20.4 nM; in assay [3], 2.7 nM; in assay [4] it was 3.6 nM.
